Settings: dog, in vivo, 1.5 mg/kg

Structure (SMILES): O=[N+]([O-])[O-].O=[N+]([O-])[O-].O=[N+]([O-])[O-].[Ga+3] [Ga nitrate, gallium nitrate]
- F (AUC0-oo): 0.08
